{
  "source": "patent US11479755B2",
  "about": "“T cell compositions” (2seventy bio, Inc., priority 2015, dated 2022)",
  "tested_on": "anti-BCMA CAR T cells",
  "test": "Cell surface marker expression by multiparameter mass cytometry (CyTOF)",
  "format": "cell-based",
  "details": "CD62L positive cells, ten days of culture",
  "method": "Expression analysis of 29 additional cell surface markers on anti-BCMA CAR T cells cultured with IL-2 and ZSTK474 was performed using multiparameter mass cytometry (CyTOF) and compared with CAR T cells cultured in IL-2 alone. […] Thus, co-expression of CD62L, CD127, CD197, and CD38 further stratified ZSTK474-cultured CAR T cells. After culture in media containing IL-2, 7.44% of anti-BCMA CART co-expressed CD127, CD197 and CD38 compared to 24.5% of anti-BCMA CAR T cells cultured with IL-2 and ZSTK474. The Venn diagram in FIG. 8 illustrates the co-expression of CD127, CD197 and CD38 in CD62L positive anti-BCMA CAR T cells.",
  "data": [
    {"substance": "IL-2: interleukin-2 (CellGenix) in culture media; standard culture condition", "values": [
      {"measurement": "anti-BCMA CAR T cells co-expressing CD127, CD197 and CD38", "result": 7.44, "unit": "%"}
    ]}
  ]
}
